This passage reports Ki results from BindingDB's records for doi:10.1097/00001756-199710200-00002 (Cnrs Upr 9023, 1997).

The chains behind the UniProt entries cited, without tags or fusion partners. Where a name states a change or a piece, a line headed by the entry shows the natural chain unless it says otherwise.
UniProt Q62758: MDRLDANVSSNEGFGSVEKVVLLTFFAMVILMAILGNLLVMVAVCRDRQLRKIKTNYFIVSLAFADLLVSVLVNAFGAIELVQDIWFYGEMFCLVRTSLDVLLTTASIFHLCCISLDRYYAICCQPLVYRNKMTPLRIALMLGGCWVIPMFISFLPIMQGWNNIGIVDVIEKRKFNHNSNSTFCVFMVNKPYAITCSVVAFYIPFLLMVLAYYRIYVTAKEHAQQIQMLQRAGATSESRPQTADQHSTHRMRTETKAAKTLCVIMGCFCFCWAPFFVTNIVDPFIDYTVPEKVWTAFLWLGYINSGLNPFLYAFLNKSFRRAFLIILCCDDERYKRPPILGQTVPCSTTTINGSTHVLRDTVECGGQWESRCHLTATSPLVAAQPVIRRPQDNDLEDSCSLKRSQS

The assay has as its target 5-hydroxytryptamine receptor 4 (Rattus norvegicus, UniProt Q62758).

The Ki is the dissociation constant of the complex between target and ligand, obtained from inhibition or displacement. Low readings indicate higher affinity, high ones lower affinity. As for `NCCc1c[nH]c2ccc(O)cc12` [[3H]-5-HT], the Ki was 38.9 nM.
